Measured values: PMC9932578 (Clinical Cancer Research, 2022)

SMILES: CCNC(=O)C[C@@H]1N=C(c2ccc(Cl)cc2)c2cc(OC)ccc2-n2c(C)nnc21 [molibresib]
- DLT: sialadenitis (75 mg QD MDS cohort, n = 1/16): 6%
- DLT: decrease in ejection fraction (120 mg QD AML cohort, n = 1/6): 17%
- patients who experienced a DLT (all cohorts): 4 patients
